The values below come from patent US12351878B2, “Identification of HER2 mutations in lung cancer and methods of treatment” (THE TRANSLATIONAL GENOMICS RESEARCH INSTITUTE, priority 2018, dated 2025).

The subject of experiment [1] is HER2-overexpressing canine cancer cell lines. The conditions noted are these: reference 50; cited from earlier work.
Experiment [2] deals with BACA (HER2 WT). The experiment is described as follows: 72 hour drug dose-response, CellTiter-Glo cell viability. The experiment is classed as cell-based, canine. The procedure:
(§1) Relative survival was measured with respect of the sensitive cell line BT474.
(§2) Sample Collection: Tumors and cell lines from 89 dogs from the Canine Comparative Oncology and Genomics Consortium (CCOGC) (11) and The Ohio State University (OSU) College of Veterinary Medicine Biospecimen Repository were included. Board-certified veterinary pathologists confirmed tumor diagnosis based on histopathology. Tumor and normal tissue samples were flash frozen in liquid nitrogen or formalin-fixed and paraffin-embedded (FFPE). Cell lines were maintained in RPMI 1640 with GlutaMAX™ (Gibco™, Thermo Fisher Scientific, #61870036) supplemented with 10% heat-inactivated fetal bovine serum at 37° C. and 5% CO2 and passaged at 90% confluence. Cell lines with known passage data (except BACA) were sequenced within the first eight passages of derivation and subsequently expanded for phenotypic studies, and were authenticated by IDEXX BioResearch (Columbia, MO) using the Cell Check Canine STR Profile and Interspecies Contamination Test or by NkX2 (or TTF-1) RT-PCR. Human cell lines included BT474 (ATCC #HTB20, HER2 focal amplification) and H1781 (ATCC #CRL-5894, HER2 […]). Blood for cell-free DNA (cfDNA) and germline DNA extraction was collected in 10 ml K2 EDTA Blood tubes (Thermo Fisher Scientific #22-253-145). Plasma separation was performed at room temperature within 1 hour (2× serial centrifugation at 2000 rpm×15 minutes). Plasma aliquots were stored frozen at −80° C. DNA extraction from plasma, white blood cells and tissue was performed with MagMAX Cell-Free DNA Isolation Kit (Thermo Fisher Scientific #A29319), DNeasy Blood and Tissue Kit (QIAGEN #69504) and Qiagen AllPrep DNA/RNA Mini Kit (QIAGEN #80204), respectively.
(§3) Cells were cultured in RPMI supplemented with 10% FBS and 1% Penicillin/Streptomycin. Luminescence was read using Synergy Mx (Biotek) plate reader. Six replicates were performed for each dose. Curve-fitting and IC50 calculations were performed using GraphPad Prism v7.00 (GraphPad Software).
In general terms: In ATP-based viability assays light output follows the ATP content of the culture.

The test system of experiment [3] is OSUK9PAPADO. The experiment is described as above. Type of experiment: cell-based, canine. Here is the method:
as §1, §2, §3

Experiment [4] concerns OSUK9PADSn (HER2 WT). The experiment is described as above. Type of experiment: cell-based, canine. Here is the method: as §1, §2, §3

Regarding trastuzumab, the “proliferation of HER2-overexpressing canine cancer cell lines” value in experiment [1] is reported as “inhibit proliferation”. For the same substance, the dose-dependent viability response entry in experiment [2] was “no responses at any dose”; in experiment [3], “More limited responses”; in experiment [4] it was “More limited responses”.
